Values quoted from earlier work in patent publication US5762960A (Trustees of Tufts College, priority 1996, dated 1998).

System: serotonin uptake
Parameters: Amine Uptakes Blocking Activity Serotonin: key to the marks not given beside the values
Settings: cited from earlier work; for Amine Uptakes Blocking Activity Serotonin: Table 3; for Activity at the serotonin receptor site in-vivo: in words, text commenting on Table 6

Row | Structure (SMILES) | Amine Uptakes Blocking Activity Serotonin | Activity at the serotonin receptor site in-vivo
1 | CN(C)CCCN1c2ccccc2CCc2ccc(Cl)cc21 [Clomipramine, 3-chloro-10,11-dihydro-N,N-dimethyl-5H-benzo-[b,f]azepine-5-propamine] | +++++ | highest or very highest
2 | CN(C)CCC=C1c2ccccc2CCc2ccccc21 [Amitriptyline] | ++++ | highest or very highest
3 | Fc1ccc([C@@H]2CCNC[C@H]2COc2ccc3c(c2)OCO3)cc1 [Paroxetine, paroxetine] | – | greatest powers
4 | CNCCC(Oc1ccc(C(F)(F)F)cc1)c1ccccc1 (stereo not drawn) [Fluoxetine, fluoxetine] | – | greatest powers
